## OPERA 2.9 data: properties

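These are experimental values that the OPERA curators gathered from public databases to train and test their QSAR models. One number stands for a compound and property, with no spread given. How each value was measured is not recorded, so precision varies. The measured form (salt, isomer or mixture) is not always the one drawn. Unmarked limits or estimates from the upstream databases cannot be ruled out.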

The melting point is given in degrees Celsius. The boiling point refers to atmospheric pressure (760 mmHg), by the definition of the set. logP is the log10 of the octanol-water partition coefficient; higher is more lipophilic. Water solubility is log10 of mol/L, nominally at 25 °C; higher is more soluble. Vapor pressures (log10 mmHg) refer to near room temperature, 15 to 30 °C; higher is more volatile. The Henry's law constant is on a log10 scale in atm·m3/mol (set defined at 25 °C); higher favours air over water. Cells with "–" have no entry in this list.

| compound | name | melting point (°C) | bp (°C) | logP | log S (log10 mol/L) | vapor pressure (log10 mmHg) | log H (log10 atm·m3/mol) |
|---|---|---|---|---|---|---|---|
| O=C(O)c1c(F)cccc1F | 2,6-Difluorobenzoic acid | – | – | – | -1.71 | -1.585 | -6.83 |
| Cn1c(-c2ccccc2)c(/C=C/C2=[N+](C)c3ccccc3C2(C)C)c2ccccc21.[Cl-] | – | 167 | – | 1.1 | – | – | – |
| CC(CC(C)(C)C1CCCCC1)C1CCCCC1 (stereo not given) | Cyclohexane, 1,1'-(1,1,3-trimethyl-1,3-propanediyl)bis- | – | – | – | -6.7 | -3.236 | – |
| O=C(Oc1cccc2cccc(OC(=O)c3ccccc3)c12)c1ccccc1 | 1,8-Naphthylene dibenzoate | 179 | – | 4.1 | -7.265 | – | – |
| FC1CC(F)(F)C(F)(F)C1(F)F (stereo not given) | 1H,1H,2H-Perfluorocyclopentane | 20.75 | – | 2.4 | -2.437 | 1.517 | – |
| O=C1C=CC(=O)N1c1ccc(Cc2ccc(N3C(=O)C=CC3=O)cc2)cc1 | Bismaleimide | – | – | 1.91 | -5.998 | -9.046 | – |
| C=CC(=O)NC(C)(C)CS(=O)(=O)O | 2-Acrylamido-2-methyl-1-propanesulfonic acid | – | – | -3.7 | – | -8.481 | – |
| OCCOCCOc1ccccc1 | Diethylene glycol monophenyl ether | – | – | 1.35 | – | -3.046 | – |
| CCCCCCCCCCCCCCCC(=O)OCCO | hexadecanoic acid, 2-hydroxyethyl ester | 59.45 | – | – | -4.603 | – | – |
| CC(C)C=NCC1CCCC(CN=CC(C)C)C1 (stereo not given) | – | – | 232.4 | – | – | -0.389 | – |
| CCCCCCC#CC(=O)OC | Methyl 2-nonynoate | -6 | – | 3.4 | -3.361 | -1.253 | – |
| Nc1c(OCCOC(=O)Oc2ccccc2)cc(O)c2c1C(=O)c1ccccc1C2=O | – | 173 | – | 5.16 | – | -12.46 | – |
| CCOC(=O)[C@H](CCc1ccccc1)N[C@@H](C)C(=O)N1[C@H](C(=O)O)C[C@H]2CCCC[C@@H]21 | Trandolapril | – | – | 3.5 | -4.318 | – | – |
| CN(C)C[C@H](O)[C@@H](O)[C@H](O)[C@H](O)CO (stereo in doubt) | N,N-Dimethyl-D-glucamine | 90.3 | – | -1.8 | – | -5.272 | – |
| COC(=O)c1cc(F)ccc1N | Methyl 2-amino-5-fluorobenzoate | – | – | 2.4 | -1.956 | – | – |
| COC(=O)c1ccc(C(=O)OC)c(N=NC(C(C)=O)C(=O)Nc2ccc3[nH]c(=O)[nH]c3c2)c1 (stereo not given) | – | 305 | – | – | -6.314 | – | – |
| CCCCCCCCC1CCC(=O)O1 (stereo not given) | gamma-Dodecalactone | – | – | 2.7 | -3.519 | – | – |
| CON=C(C)Cc1c(Cl)cc(Cl)cc1Cl | 1-(2,4,6-Trichlorophenyl)-2-propanone O-methyloxime | – | 280.9 | 4.5 | -4.417 | -3.258 | – |
| C=C[C@]1(C)CC[C@@H](C(C)(C)O)C[C@H]1C(=C)C | – | 9 | 254 | 3.68 | -3.059 | -1.71 | – |
| CC(C)Sc1ncccc1CCC(F)(F)F | 2-(Isopropylthio)-3-(2,2,2-trifluoroethoxy)pyridine | 24.8 | – | 3.5 | -3.414 | -2.142 | – |
| CCCCCCCC/C=C\CCCCCCCCNC(=O)CCCCCCCCCCCCCCC | N-Oleylpalmitic acid amide | 65 | – | – | – | -6.206 | -3.85 |
| Cc1ccccc1NC(=O)c1cc2ccccc2cc1O | 2-Naphthalenecarboxamide, 3-hydroxy-N-(2-methylphenyl)- | – | – | 2.55 | -4.623 | – | – |

The first 3 entries again:

| compound | name | melting point (°C) | bp (°C) | logP | log S (log10 mol/L) | vapor pressure (log10 mmHg) | log H (log10 atm·m3/mol) |
|---|---|---|---|---|---|---|---|
| O=C(O)c1c(F)cccc1F | 2,6-Difluorobenzoic acid | – | – | – | -1.71 | -1.585 | -6.83 |
| Cn1c(-c2ccccc2)c(/C=C/C2=[N+](C)c3ccccc3C2(C)C)c2ccccc21.[Cl-] | – | 167 | – | 1.1 | – | – | – |
| CC(CC(C)(C)C1CCCCC1)C1CCCCC1 (stereo not given) | Cyclohexane, 1,1'-(1,1,3-trimethyl-1,3-propanediyl)bis- | – | – | – | -6.7 | -3.236 | – |

Data: OPERA 2.9 data sets, kmansouri/OPERA on GitHub.